PubChem BioAssay AID1508614 (Milbrandt Lab, Department of Genetics, Washington …, 2020)
The entries are a selection whose mix differs from that of the whole data set. Calls of active or inactive are those of the source.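 How the source made its calls: active means compound whose remaining NAD level is above about 45 nM (limit read from the data); inactive means the rest.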

By UniProt entry, the sequences of proteins in these tests, tags left out. Where a name states a change or a piece, a line headed by the entry shows the natural chain unless it says otherwise.
UniProt Q6SZW1: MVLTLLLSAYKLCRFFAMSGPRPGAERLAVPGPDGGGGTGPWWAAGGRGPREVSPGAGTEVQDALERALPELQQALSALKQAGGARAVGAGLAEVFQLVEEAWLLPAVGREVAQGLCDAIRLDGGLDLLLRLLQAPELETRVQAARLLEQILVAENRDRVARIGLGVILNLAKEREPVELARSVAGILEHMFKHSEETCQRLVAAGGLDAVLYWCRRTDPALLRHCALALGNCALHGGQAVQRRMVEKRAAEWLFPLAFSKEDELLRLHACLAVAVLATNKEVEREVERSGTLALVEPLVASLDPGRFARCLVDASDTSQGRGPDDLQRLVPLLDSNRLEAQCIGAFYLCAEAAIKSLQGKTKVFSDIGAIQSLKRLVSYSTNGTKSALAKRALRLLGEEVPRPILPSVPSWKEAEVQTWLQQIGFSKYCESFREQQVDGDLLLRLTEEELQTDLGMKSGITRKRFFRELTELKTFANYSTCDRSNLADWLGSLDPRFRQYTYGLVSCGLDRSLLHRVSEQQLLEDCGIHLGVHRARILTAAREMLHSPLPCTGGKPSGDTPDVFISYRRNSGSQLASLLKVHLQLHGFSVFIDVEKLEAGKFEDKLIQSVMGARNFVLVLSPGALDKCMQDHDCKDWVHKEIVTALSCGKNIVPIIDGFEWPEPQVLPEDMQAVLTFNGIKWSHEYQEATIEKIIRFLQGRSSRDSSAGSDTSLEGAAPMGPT

Target: NAD(+) hydrolase SARM1 (Homo sapiens) (UniProt Q6SZW1)
Assay: SARM1 TIR NADase inhibitors, cell lysate, NAD-Glo luminescence (AID 1508614);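 further: higher remaining NAD means stronger inhibition of SARM1 NADase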
Settings: SAM-TIR HEK293T lysate NADase, at 1 µM

SMILES | remaining NAD
O=C(OC1CN2CCC1CC2)c1ccccc1 (stereo not drawn) | inactive
O=P(O)(O)F | inactive
NC(=O)Nc1ccc([As](=O)(O)O)cc1 | inactive
